Sampled rows, rich in hits. Any-hit rate of the full collection: about 13%.
ALDH1A1 block – blocks purified human ALDH1A1 activity; AID 1030; Purified ALDH1A1, NADH fluorescence, propionaldehyde substrate; P00352; actives 7.3% (n = 220,000); Potency, µM (highest dose often 75.3 µM), hits mostly inhibitors; active = well fitted inhibition curve with a large enough effect, not every such curve was filed as active; inconclusive = small, poorly fitted or top-dose-only effect, or another doubt; inactive = no such curve, though single readings can be large or run the other way
KDM4E inh – blocks human JMJD2E demethylase activity. JMJD2E catalytic domain, FDH-coupled NADH fluorescence (FDH is formaldehyde dehydrogenase). B2RXH2. AID 2147. Potency, µM (doses to about 57.1 µM), actives largely listed as inhibitors. actives 1.6% (n = 230,000); active = well fitted inhibition curve with a large enough effect, not every such curve was filed as active; inconclusive = small, poorly fitted or top-dose-only effect, or another doubt; inactive = no such curve, though single readings can be large or run the other way; note: nearly all actives have a fitted effect of over 50% in size
Lamin A splicing – changes lamin A minigene splicing in HeLa cells | HeLa LMNA splicing GFP/RFP minigene ratio, 48 h | Potency, µM (titrated, usually from 46.1 µM), actives largely listed as inhibitors | actives 0.01% (n = 200,000) | AID 1487; active = well fitted inhibition curve with a large enough effect in the signal ratio, with a control signal flat, not every such curve was filed as active; inconclusive = small, poorly fitted or top-dose-only effect, or effect the other way, or a change in a side signal; the % refers to the signal ratio
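S3 HeLa cells stably expressing lamin A-EGFP splicing minigene plus DsRed2, 600 cells/well, 48 h compound exposure at 37C. Laser-scanning cytometry; analysed as GFP (500-530 nm)/RFP (575-640 nm) total intensity ratio; 0.5% DMSO vehicle.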
G9a block – blocks human histone lysine methyltransferase G9a | actives 8.8% (n = 350,000) | G9a H3K9 monomethylation, AlphaScreen, 2 h | Potency, µM (titrated, usually from 102 µM), most hits filed as inhibitors | Q96KQ7 | AID 504332; note: nearly all actives have a fitted effect of over 75% in size
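Enzyme 20 nM + cpd, 15 min RT; add b-H3K9 pep 500 nM / SAM 20 uM; 2 h RT; anti-H3K9me1 Ab 0.5 ug/mL + SA donor / anti-rabbit acceptor beads 20 ug/mL each, 10 min; AlphaScreen read.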
Sfp PPTase inh – blocks B. subtilis Sfp PPTase activity; Q9F4F7; Biochemical Sfp PPTase activity, qHTS; Potency, µM, hits mostly inhibitors; actives 3.5% (n = 310,000); AID 1490;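 note: the enzyme is Sfp with the accession as filed and its product quenches rhodamine fluorescence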
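After 15 min at room temperature with compound, 15 nM Sfp received 5 uM rhodamine-CoA plus 12.5 uM BHQ-2-ybbR (50 mM Hepes pH 7.6, 10 mM MgCl2). Rate came from the fluorescence difference over 30 min, ex 525/em 598 nm.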
miR-21 reporter – miR-21 reporter, rising signal. 340,000 tested, under 10 active. Potency, µM (highest dose often 38.3 µM). HeLa miR-21 FLuc reporter, luciferase, 48 h. AID 2288; active = well fitted rising curve with a large enough effect; inconclusive = small, poorly fitted or top-dose-only effect; inactive = no such curve, though single readings can be large or run the other way;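 further: miR-21 action dims this reporter so a rising signal means less miR-21 action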
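Using DMEM plus 10% FBS, HeLa miR-21-FLuc cells are incubated with test compounds (final up to about 40uM) for 48 hours; firefly luciferase signal is then imaged following reagent-mediated lysis.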
Of the large screens only hits and unclear results are named; the others gave an inactive call. Unless noted, calls come from the whole dose curve; as a rule, active = well fitted curve in the direction sought with a large enough effect; inconclusive = small, poorly fitted or top-dose-only effect, or another doubt; inactive = no such curve, though single readings can be large; an effect the other way counts as inactive or inconclusive.

NN(CCO)C(=S)Nc1ccc(Cl)cc1	G9a block 11µM
N#Cc1c(-n2ncnc2-c2cccc(Cl)c2)sc2c1CCCCC2	none (no result: ALDH1A1 block, KDM4E inh, Lamin A splicing, Sfp PPTase inh)
CCC1CN(C(=O)N2CCC(C(=O)NCc3ccc(C)o3)CC2)c2cc(C)ccc2O1 (stereo unspecified)	G9a block 45µM (no result: ALDH1A1 block, KDM4E inh)
CCCCNC(=O)C1CCN(C(=O)N2CC(C)Oc3ccc(Cl)cc32)CC1 (stereo unspecified)	G9a block 8.9µM (no result: ALDH1A1 block, KDM4E inh, Sfp PPTase inh)
CNC[C@H](O)[C@H](O)[C@H](O)[C@H](O)CO	none (no result: miR-21 reporter)
COc1ccc(C(=O)N/N=C(\C)CC(=O)Nc2ccc3ccccc3c2)c(OC)c1	none (no result: ALDH1A1 block, KDM4E inh, Lamin A splicing)
Cc1ccc(-c2csc3ncnc(SCC(=O)Nc4nnc(C)s4)c23)cc1	none
Cc1ccc(-c2csc3ncnc(Sc4nnc(CN5CCCCCC5=O)o4)c23)cc1	ALDH1A1 block 7.9µM, Lamin A splicing inconclusive, miR-21 reporter inconclusive
Cc1cccc(OCCC(=O)Nc2ccc(Cl)cc2F)c1	none (no result: ALDH1A1 block, KDM4E inh, Lamin A splicing)
O=C(CCS(=O)(=O)c1nc(-c2ccc3c(c2)OCO3)cc(C(F)(F)F)n1)Nc1ccc(Br)cc1	none (no result: ALDH1A1 block, KDM4E inh, Lamin A splicing, Sfp PPTase inh)
Cc1cccc(CCNC(=O)C2CCC(CNS(=O)(=O)c3cccs3)CC2)c1 (stereo unspecified)	ALDH1A1 block 1.8µM (no result: Lamin A splicing)
O=C(NCCc1ccccc1)C1CCC(CNS(=O)(=O)c2cccs2)CC1 (stereo unspecified)	ALDH1A1 block 4µM (no result: Lamin A splicing)
O=C(NCc1cccs1)C1CCN(S(=O)(=O)c2ccccc2F)CC1	G9a block 79µM (no result: ALDH1A1 block, Lamin A splicing)
O=C(NCCc1ccccc1)C1CCN(S(=O)(=O)c2cccs2)CC1	ALDH1A1 block 10µM
O=C(NCCc1ccc(Cl)cc1)C1CCN(S(=O)(=O)c2cccs2)CC1	ALDH1A1 block inconclusive
Cc1cccc(CCNC(=O)C2CCC(CNS(=O)(=O)c3c(C)cc(C)cc3C)CC2)c1 (stereo unspecified)	Lamin A splicing inconclusive (no result: ALDH1A1 block, KDM4E inh, Sfp PPTase inh)
CSc1cccc(NC(=O)C(c2ccccc2)N2Cc3ccccc3C2=O)c1 (stereo unspecified)	Lamin A splicing inconclusive, G9a block inconclusive (no result: ALDH1A1 block, KDM4E inh, Sfp PPTase inh)
CCCCN(CC)CCNC(=O)C1CCCN(c2ncnc3onc(C)c23)C1 (stereo unspecified)	Lamin A splicing inconclusive (no result: ALDH1A1 block, KDM4E inh, Sfp PPTase inh)
O=C(c1cccc([N+](=O)[O-])c1)N1CCN(CCc2ccncc2)CC1	none (no result: ALDH1A1 block, KDM4E inh, Sfp PPTase inh)
N#C/C(=C\c1ccc(OC(=O)c2ccc(Br)s2)cc1)c1nc2ccccc2[nH]1	KDM4E inh 18µM
CCOC(=O)c1cc(-c2ccc(F)cc2)n(CCC(=O)Nc2cc(OC)cc(OC)c2)c1C	G9a block inconclusive (no result: ALDH1A1 block, KDM4E inh, Sfp PPTase inh)
CCOC(=O)c1c(NC(=O)CN2CCCc3ccccc32)sc(C(C)=O)c1C	none
COc1ccc(Cl)cc1NC(=O)CN(C)C(C)C(=O)NCC1CCCCC1 (stereo unspecified)	ALDH1A1 block inconclusive, Lamin A splicing inconclusive, G9a block inconclusive
COc1ccc(Cl)cc1NC(=O)CN1CCc2ccccc21	ALDH1A1 block 7.9µM, G9a block 22µM (no result: Lamin A splicing)
COc1cc(NC(=O)c2ccccc2)c(OC)cc1NC(=O)CN1C(=O)N(C)C2(CCCCC2)C1=O	G9a block 79µM (no result: ALDH1A1 block, KDM4E inh, Lamin A splicing, Sfp PPTase inh, miR-21 reporter)
COCCOC(=O)c1c(NC(=O)CN2CCc3ccccc32)sc(C(N)=O)c1C	ALDH1A1 block 14µM, Sfp PPTase inh inconclusive (no result: Lamin A splicing)
COc1ccc(Cl)cc1NC(=O)CN(C(=O)c1ccco1)C1CCCCC1	ALDH1A1 block 0.04µM, Lamin A splicing inconclusive
COc1cc(NC(=O)c2ccccc2)c(OC)cc1NC(=O)CN1CCN(c2ccccn2)CC1	ALDH1A1 block 16µM
COc1ccc(Cl)cc1NC(=O)CN1CCN(S(=O)(=O)N2CCCCC2)CC1	none (no result: ALDH1A1 block, KDM4E inh, Lamin A splicing)
COc1cc(NC(=O)c2ccc(Cl)cc2)c(OC)cc1NC(=O)CN1CCCCC1	ALDH1A1 block inconclusive, KDM4E inh inconclusive, G9a block 50µM
COc1cc(NC(=O)c2ccc(Cl)cc2)c(OC)cc1NC(=O)CN1CCOCC1	ALDH1A1 block inconclusive
COc1ccc(NC(=O)CN2CCN(c3ccccn3)CC2)cc1Cl	none (no result: ALDH1A1 block, KDM4E inh, Lamin A splicing)
COc1cc(NS(C)(=O)=O)c(OC)cc1NC(=O)c1ccccc1	ALDH1A1 block 25µM
COc1ccc(Cl)cc1NC(=O)CN1CCCCCC1	ALDH1A1 block 18µM (no result: Lamin A splicing)

Screening data as filed in PubChem.
